Results as given in patent US20250034125A1, “COMPOUNDS AND USES THEREOF” (JANSSEN PHARMACEUTICA NV, priority 2019, published 2025).
Read-outs that look alike come from different tables or passages of the source.

Legend:
SCD5 = biological target: T1, SCD5 (Homo sapiens, UniProt Q86SK9); experiment: Growth inhibition of yeast (ole1Δ) expressing human SCD5 as the sole desaturase; format: cell-based
T1 construct: host or cells: Saccharomyces cerevisiae ole1Δ strain (W303 pdr1Δ pdr3Δ background), plasmid pRS316, TDH3 promoter
T1 sequence (Q86SK9 1-330): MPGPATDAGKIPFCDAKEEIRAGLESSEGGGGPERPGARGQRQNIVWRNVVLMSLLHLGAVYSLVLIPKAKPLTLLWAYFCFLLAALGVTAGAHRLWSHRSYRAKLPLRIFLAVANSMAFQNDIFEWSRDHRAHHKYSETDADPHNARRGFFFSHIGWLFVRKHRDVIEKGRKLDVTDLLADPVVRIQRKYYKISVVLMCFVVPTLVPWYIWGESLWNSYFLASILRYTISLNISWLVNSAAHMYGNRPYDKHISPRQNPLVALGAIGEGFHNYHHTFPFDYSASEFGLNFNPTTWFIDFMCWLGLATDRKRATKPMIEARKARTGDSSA

SCD1 = biological target: T2, SCD1 (Homo sapiens, UniProt O00767); experiment: Growth inhibition of yeast (ole1Δ) expressing human SCD1 as the sole desaturase; format: cell-based
T2 construct: host or cells: Saccharomyces cerevisiae ole1Δ strain (W303 pdr1Δ pdr3Δ background), plasmid pRS316, TDH3 promoter
T2 sequence (O00767 1-359): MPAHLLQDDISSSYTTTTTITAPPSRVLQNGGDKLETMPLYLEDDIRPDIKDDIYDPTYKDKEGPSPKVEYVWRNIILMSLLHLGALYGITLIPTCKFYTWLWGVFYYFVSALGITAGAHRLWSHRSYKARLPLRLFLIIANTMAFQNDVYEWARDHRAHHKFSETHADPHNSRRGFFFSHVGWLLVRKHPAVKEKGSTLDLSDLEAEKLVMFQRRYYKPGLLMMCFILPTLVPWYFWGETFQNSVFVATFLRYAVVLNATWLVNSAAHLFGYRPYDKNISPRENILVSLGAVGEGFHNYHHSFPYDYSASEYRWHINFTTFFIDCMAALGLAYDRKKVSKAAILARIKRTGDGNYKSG

Row | IC50 (SCD1; yeast strain with SCD1 plasmid, OD600 growth read at 40 h, read-out: SCD1 IC50) [nM] | SMILES | IC50 (SCD5) [nM] | IC50 (SCD1) [nM]
1 |  | Cn1nc(NC(=O)N2CCC(Cc3ccccc3Cl)CC2)ccc1=O [Compound 42, 4-(2-chlorobenzyl)-N-(1-methyl-6-oxo-1,6-dihydropyridazin-3-yl)piperidine-1-carboxamide] | 30 | 440
2 | 1700 | Cn1nc(-c2nc(N3CCC(Cc4cccc(F)c4)CC3)no2)ccc1=O [Compound 114, 6-(3-(4-(3-fluorobenzyl)piperidin-1-yl)-1,2,4-oxadiazol-5-yl)-2-methylpyridazin-3(2H)-one] |  | 
